{"source": "patent US20060073183A1", "about": "“Therapeutic composition and a method of coating implantable medical devices” (Advanced Cardiovascular Systems, Inc., priority 2002, published 2006)", "experiment": "Dissolution in formamide with heating", "assay_type": "physicochemical", "conditions": "about 0.1 gram in 1 milliliter formamide, heated at 50° C, a few minutes", "protocol": "Formamide (H—CO—NH2) can be used as a solubilizing agent for heparin, heparin derivatives, or PArg. Heparin or a heparin derivative or PArg can be dissolved in formamide. At least 8% by mass of a solution of heparin or a derivative thereof or PArg in formamide can be prepared.\nAbout 1 milliliter (1.133 gram) of formamide was added to 0.1 gram of sodium heparin (NaHep) obtained from Aldrich Chemical Co. of Milwaukee, Wis. The suspension was heated at a temperature about 70° C. After about 5 minutes of heating, sodium heparin was fully dissolved in formamide to form about 8.1 mass % NaHep solution. About 0.15 gram of EVAL was dissolved in about 0.85 gram of dimethylacetamide (DMAC) to form 15% (mass) solution of EVAL. About 1 gram of the 15% EVAL solution was further dissolved in a mixture of about 2 grams of DMAC and about 1 gram of methyl alcohol. This final EVAL solution was added to the NaHep-formamide solution prepared above. The two solutions were thoroughly mixed to form a clear heparin-polymer (NaHep-EVAL) solution.\nAbout 1 milliliter (1.133 gram) of formamide was added to about 0.1 gram of poly-L-arginine sulfate. The suspension was heated at a temperature of 50° C. After a few minutes of heating, PArg was fully dissolved in formamide to form about 8.1 mass % PArg solution. About 0.15 gram of EVAL was dissolved in about 0.85 gram of DMAC to form 15% (mass) solution of EVAL. […]", "data": [{"substance": "poly-L-arginine sulfate", "values": [{"measurement": "concentration of solution with substance fully dissolved in formamide", "value": "about 8.1 mass %"}]}]}
